Only some compounds are listed: those with a hit (about 1.7% of all), similar ones and a draw of the others.
UUG fidelity: alters start codon recognition fidelity in yeast; S. cerevisiae UUG-firefly luciferase reporter, luminescence/redox ratio; activity score, % at 18.7 µM; actives 0.13% (n = 350,000); AID 602363;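 active = replicate mean at a twofold rise or more, about +100% in these data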;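 also: firefly luciferase made from a UUG start codon reports start codon fidelity; reporter light over untreated wells divided by growth signal over untreated wells; some hits fall short of that in this replicate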
dFosB act-1: activators of delta FosB homodimer, primary screen, biochemical, fluorescence polarization, TAMRA-CDK5 oligo, single point. purified delta FosB; percent of positive-control signal above neutral wells. Protein FosB (Mus musculus), P13346. 340,000 tested, 0.99% active. activation, % at 25 µM;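 active = mean activation above about 17%, with every replicate also reaching it, limit read from the data, passing the limit was not always enough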
CAL PDZ FP-1: CAL PDZ peptide-binding inhibitors, primary screen, biochemical, fluorescence polarization, Cer-tagged CAL PDZ, HTS; purified CAL PDZ, TMR-peptide fluorescence polarization, 1 h; inhibition, % at 20 µM; Golgi-associated PDZ and coiled-coil motif-containing protein (Homo sapiens), Q9HD26; 330,000 tested, 0.02% active;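 active = highest replicate inhibition of at least 40%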;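 also: plate controls were DMSO neutral control wells for no effect and unlabeled competitor peptide control wells for full effect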
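Test system: purified CerCALP PDZ construct; Compound dosing: one concentration, 20 µM compound; Also added: TMR-labelled reporter peptide T*-PRC34 bound in PDZ groove; Read-out: inhibition from polarization loss; Controls: unlabelled peptide and DMSO controls; Signal: FP readout, S and P plane fluorescence; Incubation: 1 h at RT.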
CAL PDZ FP-2: untagged CAL PDZ binding inhibitors, primary screen, biochemical, fluorescence polarization, HTS. Golgi-associated PDZ and coiled-coil motif-containing protein (Homo sapiens), Q9HD26. purified CAL PDZ, TMR-peptide fluorescence polarization, 1 h. inhibition, % at 24.9 µM. 300,000 tested, 0.92% active. AID 602252, 2012;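 active = mean inhibition of at least 30% with at least half of replicates also reaching 30%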;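 also: 0% = DMSO neutral control and 100% = excess unlabeled competitor peptide PRC23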
CDK5 inh: inhibitors of human CDK5/p35 kinase, primary screen, biochemical, single concentration; inhibition, % at 10 µM; Recombinant CDK5/p35, ADP-Glo luminescence, 60 min; AID 488839, 2010; 330,000 tested, 0.01% active;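 active = highest replicate inhibition of at least 50% and at least 75% of replicates reaching 50%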;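 also: plate controls were DMSO neutral control for no effect and GW8510 at 10 µM for full effect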
DYRK1A inh: rat Dyrk1A kinase inhibitors, primary screen, biochemical, single point, plate reader | 310,000 tested, 0.43% active | inhibition, % at 12.5 µM | Dual specificity tyrosine-phosphorylation-regulated kinase 1A (Rattus norvegicus), Q63470 | ADP-Glo luminescence, NFATc1 peptide; in the data active = inhibition above about 50%;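 also: plate controls were vehicle with enzyme for no effect and no enzyme for full effect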
dFosB act-2: activators of mouse delta FosB DNA binding, confirmation, biochemical, fluorescence polarization, TAMRA-CDK5 oligo, cherry-picked samples. shares compounds with dFosB act-1. purified delta FosB; normalised: neutral wells 0, positive control 100. activation, % at 24.9 µM. 2,400 tested, under 10 active. AID 588690, 2011;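 active = highest replicate activation at or above 34% and every replicate reaching that threshold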;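 also: higher polarization means more probe DNA bound by delta FosB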
Starred values were filed as active, the others as inactive; · = no result given.

SMILES	UUG fidelity	dFosB act-1	CAL PDZ FP-1	CAL PDZ FP-2	CDK5 inh	DYRK1A inh	dFosB act-2
C[C@H]1CN([C@@H](C)CO)C(=O)c2cc(C3=CCCCC3)cnc2O[C@H]1CN(C)C(=O)c1cccnc1	19	·	·	·	·	·	·
O=C(CN1C(=O)C2CC=CCC2C1=O)Nc1nnc(SCc2c(Cl)cccc2Cl)s1 (configuration not stated)	-3	39*	0	·	-3	9	-6
O=C(CN1C(=O)C2CC=CCC2C1=O)Nc1nnc(SCc2ccc(Cl)cc2)s1 (configuration not stated)	-12	-9	-3	-6	-1	4	·
CC(C)NC(=O)Nc1ccc2c(c1)C(=O)N(C)[C@@H]1CC[C@H](CC(=O)NCC3CCCCC3)O[C@H]1CO2	22	·	·	·	·	·	·
COc1ccc(-c2nc(Cc3ccc(Cl)cc3)no2)cc1OC	-10	50*	0	-3	0	-1	0
CC(=O)NC[C@@H]1[C@@H](c2ccc(-c3cccnc3)cc2)[C@H](CO)N1C(=O)C1CC1	-8	·	·	·	·	·	·
CC(=O)c1sc(NC(=O)C2CCN(c3ncnc4sc(C)c(C)c34)CC2)nc1-c1ccccc1	-25	0	-2	-2	0	-2	·
Cc1sc2ncnc(N3CCC(C(=O)Nc4nc(-c5ccc(F)cc5)cs4)CC3)c2c1C	5	18*	-3	7	0	-2	-1
O=C(CSc1nccn(-c2cccc(F)c2)c1=O)Nc1ccc(Cl)cc1F	-7	21*	-3	-5	-1	-3	0
C[C@@H]1CN([C@@H](C)CO)C(=O)c2cc(NC(=O)CCCN(C)C)ccc2O[C@@H]1CN(C)S(=O)(=O)c1ccc(F)cc1	-4	·	·	·	·	·	·
COc1ccc(CNc2c(C(=O)O)cnc3c2cnn3C)cc1	-15	-4	-2	-8	-2	-5	·
CCOC(=O)c1cnc2c(cnn2C)c1NCc1ccc(OC)cc1	-4	29*	1	-3	1	·	4
Cc1ccc(CNC(=O)c2ccc(N3CCC4(CC3)CC(c3cccc(Br)c3)=NO4)c(NC(=O)c3c(Cl)cccc3Cl)c2)cc1	-3	24*	-1	8	3	5	1
Cc1ccc(CNC(=O)c2ccc(N3CCC4(CC3)CC(c3cccc(Br)c3)=NO4)c(NC(=O)c3ccc(Br)cc3)c2)cc1	-8	9	1	-5	0	-2	·
CCNC(=O)C[C@@H]1C=C[C@H](NC(=O)NC2CCCCC2)[C@H](CO)O1	-19	·	·	·	·	·	·
COC(=O)c1cc(NC(=O)c2ccc(Cn3cc(Cl)cn3)o2)cc(C(=O)OC)c1	-4	21*	-2	-1	-2	12	-1
CC(=O)Nc1ccc2c(c1)C(=O)N(C)[C@@H]1CC[C@@H](CC(=O)NCc3ccccc3)O[C@@H]1CO2	-20	·	·	·	·	·	·
C[C@@H](NC(=O)Cn1cnc2c(NCc3ccccc3)ncnc21)c1cccc2ccccc12	-23	38*	0	-2	1	·	-2
O=C(Cn1cnc2c(NCc3ccccc3)ncnc21)NCc1ccccc1	-27	-2	1	-3	0	·	·
O=C(NCC(c1ccco1)N1CCCC1)c1ccc(Cl)c(S(=O)(=O)N2CCc3ccccc32)c1 (configuration not stated)	-3	23*	-3	-5	0	0	5

Quoted at random: five compounds from above, in no set order.
SMILES	UUG fidelity	dFosB act-1	CAL PDZ FP-1	CAL PDZ FP-2	CDK5 inh	DYRK1A inh	dFosB act-2
C[C@H]1CN([C@@H](C)CO)C(=O)c2cc(C3=CCCCC3)cnc2O[C@H]1CN(C)C(=O)c1cccnc1	19	·	·	·	·	·	·
O=C(CN1C(=O)C2CC=CCC2C1=O)Nc1nnc(SCc2c(Cl)cccc2Cl)s1 (configuration not stated)	-3	39*	0	·	-3	9	-6
COc1ccc(CNc2c(C(=O)O)cnc3c2cnn3C)cc1	-15	-4	-2	-8	-2	-5	·
O=C(NCC(c1ccco1)N1CCCC1)c1ccc(Cl)c(S(=O)(=O)N2CCc3ccccc32)c1 (configuration not stated)	-3	23*	-3	-5	0	0	5
CCNC(=O)C[C@@H]1C=C[C@H](NC(=O)NC2CCCCC2)[C@H](CO)O1	-19	·	·	·	·	·	·

(list continues)
SMILES	UUG fidelity	dFosB act-1	CAL PDZ FP-1	CAL PDZ FP-2	CDK5 inh	DYRK1A inh	dFosB act-2
O=C(NCC(c1ccco1)N1CCc2ccccc2C1)c1ccc(Cl)c([N+](=O)[O-])c1 (configuration not stated)	3	2	1	-3	0	6	·
O=C(/C=C/c1ccccc1)NC(=S)Nc1ccccc1C(=O)NC1CCCCC1	-8	39*	-2	-3	-2	·	-4
COc1ccc(/C=C/C(=O)NC(=S)Nc2ccccc2C(=O)NC2CCCCC2)cc1	·	44*	-1	-1	0	·	-3
O=C(/C=C/c1ccc(F)cc1)NC(=S)Nc1ccccc1C(=O)NC1CCCCC1	·	22*	-2	0	1	-8	3
C[C@@H]1CCCCO[C@H](CN(C)Cc2ccc(C(=O)O)cc2)[C@@H](C)CN([C@H](C)CO)C(=O)c2cc(NS(=O)(=O)c3ccccc3)ccc2O1	4	·	·	·	·	·	·
Cc1ccc(S(=O)(=O)Nc2cccc3c2O[C@@H](CN(C)CC2CCCCC2)[C@@H](C)CN([C@H](C)CO)C3=O)cc1	3	·	·	·	·	·	·
Cc1ccc2c(C)nc(N/C(N)=N/S(=O)(=O)c3ccccc3)nc2c1	-11	25*	-4	0	-3	-4	-5
CCOc1ccccc1C(=O)NCC(=O)OCC(=O)c1ccc2c(c1)OCCO2	-19	18*	-2	2	1	-1	3
O=C(CNC(=O)c1ccc(Cl)cc1)OCC(=O)c1ccc2c(c1)OCCO2	-11	-6	·	-8	0	10	·
CC=Cc1ccc2n(c1=O)C[C@@H]1[C@@H](CO)[C@H](C(=O)NCC(F)(F)F)[C@H]2N1C(=O)C1CC1 (mixture of isomers)	43	·	·	·	·	·	·
CCOc1cc(C(=O)Nc2ccc3c4c(cccc24)C(=O)N3CC)cc(OCC)c1OCC	-14	24*	-1	-2	2	1	5
CCN1C(=O)c2cccc3c(NC(=O)c4cccc(N5C(=O)CCC5=O)c4)ccc1c23	·	-1	-3	-3	0	19	·
Cc1ccccc1NC(=O)CSc1nc(N)c(C#N)c(-c2cccs2)c1C#N	-10	61*	0	-2	-4	5	3
Cc1ccc2cc3cc(C(=O)NCc4ccc5c(c4)OCO5)oc3nc2c1	-13	56*	-1	4	0	8	3
CN1C(=O)c2cc(NC(=O)c3cccc(F)c3)ccc2OC[C@@H]2O[C@H](CC(=O)N3CCc4ccccc4C3)CC[C@H]21	-16	·	·	·	·	·	·
CN(C)CCCNc1ncnc2sc(-c3ccccc3)cc12	-5	27*	-8	-8	-1	19	1
NC1=NC2(CCC(c3ccccc3)CC2)n2c(nc3ccccc32)N1 (configuration not stated)	-12	34*	·	-5	2	8	2
